From patent US4514403A, “Hydrouracil compounds” (Yoshitomi Pharmaceutical Industries Ltd., priority 1980, dated 1985)
Counter-ions that a name gives are not always drawn.

Assays:
[1] = Antagonism by levallorphan in electric stimuli test; settings: electric stimuli test in mice; levallorphan (narcotic antagonist)
[2] = rat, in vivo
[3] = Tolerance test; assay type: in vivo; settings: continuous administration
[4] = Hot plate test; settings: for ED50: Rattus norvegicus, sc, read-out: Hot Plate Test ED50
[5] = Bradykinin nociception test; settings: for ED50: Rattus norvegicus, read-out: Bradykinin Nociception Test ED50; for Bradykinin Nociception Test ED50: rats
[6] = Electric stimuli test; settings: for ED50: Mus musculus, read-out: Electric Stimuli Test ED50; for Electric Stimuli Test ED50: mice
[7] = Mouse jumping test; settings: administration at a lethal dose
[8] = system: evoked potentials in central nervous system; experiment: Effect on the various evoked potentials in central nervous system; assay type: in vivo, Male Wistar rats; set-up: key to Amplitude of Evoked Responses, VP-COR / Amplitude of Evoked Responses, HIP-AMY / Amplitude of Evoked Responses, HIP-SEP: -: No change; --: No change; (+): Levallorphan antagonism; (-): Levallorphan antagonism
Description: Male Wistar rats, weighing 300-350 g, were used under ethyl ether anesthesia. The trachea and femoral vein were cannulated for artificial respiration and drug injection, respectively. Immobilization of the rat was maintained by gallamine thioethiodide (10 mg/kg) given intravenously every one hours. All wound edges were infiltration with carbocaine hydrochloride. The experiments began after at least 2 hours had elapsed from discontinuance of ether anesthesia. The COR (somatosensory cortex) evoked potentials by VP (neucleus ventralis posterior thalamus) stimulation (VP - COR evoked potential) were recorded from somatosensory cortex, through a silver electrode applied directly to the cortex. In order to record VP and MRF (midbrain reticular formation) evoked potentials by sciatic nerve stimulation or AMY (amygdala) and SEP (septum) evoked potentials by HIP (hippocampus) stimulation, bipolar stainless steel electrodes were stereotaxically placed into the VP, MRF, AMY, SEP and HIP. The stimuli were delivered to various sites every 2 seconds from a stimulation and consisted of 0.1 msec rectangular pulses (twice threshold intensity). The evoked responses were visualized on an oscilloscope. All records were made up of 20 superimposed tracings.

[9] = AgNO3 arthritis test; settings: for ED50: Rattus norvegicus, sc, read-out: AgNO3 Arthritis Test ED50
[10] = in vivo; settings: rat
[11] = rat, in vivo; remark: listed apart in the source
[12] = Phenylquinone writhing test; settings: for ED50: Mus musculus, read-out: Phenylquinone Writhing Test ED50; for Phenylquinone Writhing Test ED50: mice
[13] = Tooth pulp nociception test; settings: rabbit, in vivo, iv
[14] = system: ventro-medial hypothalamus; settings: compared with Test compound B; cited from earlier work

Row | SMILES | Influence of levallorphan on analgesic activity [1] | ED50 [4] [mg/kg] | ED50 ([5]; sc) [mg/kg] | ED50 ([6]; po) [mg/kg] | ED50 ([6]; sc) [mg/kg] | ED50 [9] [mg/kg] | LD50 ([10]; ip) [mg/kg] | LD50 ([10]; po) [mg/kg] | LD50 ([10]; sc) [mg/kg] | ED50 ([12]; po) [mg/kg] | ED50 ([12]; sc) [mg/kg] | inhibition of threatening and rage reactions [14] | other results
1 | CN1C(=O)CCN(C2CCN(CCc3ccccc3)CC2)C1=O [Test compound C, 1-(1-phenethyl-4-piperidyl)-3-methyl-hydrouracil hydrochloride] | did not influence the analgesic activity | 10 | 70 | 220 | 50 | 45 | 150 | 900 | 700 | 5 | 1.5 |  | compensatory adjustment against codeine [2]: had not compensatory adjustment against codeine; cross tolerance against codeine [3]: did not show a cross tolerance against codeine; tolerance (decrease of effects) [3]: did not cause a significant decrease of effects; ED50 ([5]; po): 400 mg/kg; jumping symptom [7]: did not cause any jumping symptom; Amplitude of Evoked Responses, HIP-AMY ([8]; 5 mg/kg i.v.): --; Amplitude of Evoked Responses, HIP-SEP ([8]; 5 mg/kg i.v.): --; Amplitude of Evoked Responses, VP-COR ([8]; 5 mg/kg i.v.): --; Amplitude of Evoked Responses, HIP-AMY ([8]; 10 mg/kg i.v.): --; Amplitude of Evoked Responses, HIP-SEP ([8]; 10 mg/kg i.v.): --; Amplitude of Evoked Responses, HIP-AMY ([8]; 25 mg/kg i.v.): --; Amplitude of Evoked Responses, HIP-SEP ([8]; 25 mg/kg i.v.): --; body weight reduction [11]: not reduced
2 | O=C1CCN(C2CCN(CCc3ccccc3)CC2)C(=O)N1 [Test compound D, 1-(1-phenethyl-4-piperidyl)hydrouracil hydrochloride] |  | 200 | 25 | 220 | 100 | 90 | 180 | 500 | 450 | 4 | 2.5 |  | 
3 | COc1cccc(C2(O)CCCCC2CN(C)C)c1 (centres unmarked) [Tramadol, reference compound] | reduced |  |  |  |  |  | 150 | 228 | 300 |  |  |  | Hot Plate Test ED50 ([4]; rats, s.c.): 50 mg/kg; Bradykinin Nociception Test ED50 ([5]; p.o.): 50 mg/kg; Bradykinin Nociception Test ED50 ([5]; s.c.): 70 mg/kg; Electric Stimuli Test ED50 ([6]; p.o.): 23 mg/kg; Electric Stimuli Test ED50 ([6]; s.c.): 12 mg/kg; Tooth Pulp Nociception Test IT100 [13]: 5 mg/kg; AgNO3 Arthritis Test ED50 ([9]; rats, s.c.): 17 mg/kg; Phenylquinone Writhing Test ED50 ([12]; p.o.): 11 mg/kg; Phenylquinone Writhing Test ED50 ([12]; s.c.): 1.5 mg/kg
4 | CN(C)CCCN1c2ccccc2Sc2ccc(Cl)cc21 [chlorpromazine] |  |  |  |  |  |  |  |  |  |  |  | less active | 
5 | CN1C(=O)CN=C(c2ccccc2)c2cc(Cl)ccc21 [diazepam] |  |  |  |  |  |  |  |  |  |  |  | less active | 
6 | CCCC(C)C1(CC)C(=O)NC(=O)NC1=O (centres unmarked) [pentobarbital] |  |  |  |  |  |  |  |  |  |  |  | less active | 
